From ChEMBL document CHEMBL5036320, “Discovery of Icenticaftor (QBW251), a Cystic Fibrosis Transmembrane Conductance Regulator Potentiator with Clinical Efficacy in Cystic Fibrosis and Chronic Obstructive Pulmonary Disease” (J Med Chem, 2021)

By UniProt entry, the sequences of proteins in these tests, tags left out. Chains listed by the source or under a name are the forms on record and can include a tag or linker.
UniProt P13569, as listed by the source: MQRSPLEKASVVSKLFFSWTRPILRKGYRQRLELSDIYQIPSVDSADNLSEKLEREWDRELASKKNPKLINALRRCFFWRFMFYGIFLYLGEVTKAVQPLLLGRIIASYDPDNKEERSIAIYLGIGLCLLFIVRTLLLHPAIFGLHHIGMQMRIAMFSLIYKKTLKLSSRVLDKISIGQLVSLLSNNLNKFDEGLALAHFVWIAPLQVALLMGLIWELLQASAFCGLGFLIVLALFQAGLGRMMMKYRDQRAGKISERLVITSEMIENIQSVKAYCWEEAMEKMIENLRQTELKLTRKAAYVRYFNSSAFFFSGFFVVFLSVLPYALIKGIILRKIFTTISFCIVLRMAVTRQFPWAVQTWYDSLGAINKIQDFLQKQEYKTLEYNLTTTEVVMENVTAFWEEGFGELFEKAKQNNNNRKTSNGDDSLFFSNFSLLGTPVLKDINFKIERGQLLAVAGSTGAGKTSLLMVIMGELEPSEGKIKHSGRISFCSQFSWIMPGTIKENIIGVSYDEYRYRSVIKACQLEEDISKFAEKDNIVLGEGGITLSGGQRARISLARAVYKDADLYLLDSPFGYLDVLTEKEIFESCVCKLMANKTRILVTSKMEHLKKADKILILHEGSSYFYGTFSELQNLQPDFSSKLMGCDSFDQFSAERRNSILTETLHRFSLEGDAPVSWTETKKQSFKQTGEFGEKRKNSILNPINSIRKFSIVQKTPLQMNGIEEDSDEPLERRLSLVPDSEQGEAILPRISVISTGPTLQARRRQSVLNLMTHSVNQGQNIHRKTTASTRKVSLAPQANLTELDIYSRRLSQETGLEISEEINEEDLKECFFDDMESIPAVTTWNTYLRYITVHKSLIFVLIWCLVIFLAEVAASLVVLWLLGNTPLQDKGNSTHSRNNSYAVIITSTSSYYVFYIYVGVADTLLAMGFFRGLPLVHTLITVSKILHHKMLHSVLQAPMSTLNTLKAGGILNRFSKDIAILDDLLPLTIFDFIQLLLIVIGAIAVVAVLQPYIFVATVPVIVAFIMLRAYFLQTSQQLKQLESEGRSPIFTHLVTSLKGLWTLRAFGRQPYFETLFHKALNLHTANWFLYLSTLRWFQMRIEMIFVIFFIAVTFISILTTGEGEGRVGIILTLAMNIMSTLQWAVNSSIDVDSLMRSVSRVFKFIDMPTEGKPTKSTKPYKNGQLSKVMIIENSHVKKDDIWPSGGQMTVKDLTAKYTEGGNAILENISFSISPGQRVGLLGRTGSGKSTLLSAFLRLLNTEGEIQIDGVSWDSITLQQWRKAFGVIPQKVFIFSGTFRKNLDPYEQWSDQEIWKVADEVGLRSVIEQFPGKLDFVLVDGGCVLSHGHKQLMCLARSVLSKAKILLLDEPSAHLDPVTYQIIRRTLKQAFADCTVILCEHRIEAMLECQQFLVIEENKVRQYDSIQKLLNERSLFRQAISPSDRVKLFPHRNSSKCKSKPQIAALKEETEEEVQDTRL
UniProt P13569, whole entry: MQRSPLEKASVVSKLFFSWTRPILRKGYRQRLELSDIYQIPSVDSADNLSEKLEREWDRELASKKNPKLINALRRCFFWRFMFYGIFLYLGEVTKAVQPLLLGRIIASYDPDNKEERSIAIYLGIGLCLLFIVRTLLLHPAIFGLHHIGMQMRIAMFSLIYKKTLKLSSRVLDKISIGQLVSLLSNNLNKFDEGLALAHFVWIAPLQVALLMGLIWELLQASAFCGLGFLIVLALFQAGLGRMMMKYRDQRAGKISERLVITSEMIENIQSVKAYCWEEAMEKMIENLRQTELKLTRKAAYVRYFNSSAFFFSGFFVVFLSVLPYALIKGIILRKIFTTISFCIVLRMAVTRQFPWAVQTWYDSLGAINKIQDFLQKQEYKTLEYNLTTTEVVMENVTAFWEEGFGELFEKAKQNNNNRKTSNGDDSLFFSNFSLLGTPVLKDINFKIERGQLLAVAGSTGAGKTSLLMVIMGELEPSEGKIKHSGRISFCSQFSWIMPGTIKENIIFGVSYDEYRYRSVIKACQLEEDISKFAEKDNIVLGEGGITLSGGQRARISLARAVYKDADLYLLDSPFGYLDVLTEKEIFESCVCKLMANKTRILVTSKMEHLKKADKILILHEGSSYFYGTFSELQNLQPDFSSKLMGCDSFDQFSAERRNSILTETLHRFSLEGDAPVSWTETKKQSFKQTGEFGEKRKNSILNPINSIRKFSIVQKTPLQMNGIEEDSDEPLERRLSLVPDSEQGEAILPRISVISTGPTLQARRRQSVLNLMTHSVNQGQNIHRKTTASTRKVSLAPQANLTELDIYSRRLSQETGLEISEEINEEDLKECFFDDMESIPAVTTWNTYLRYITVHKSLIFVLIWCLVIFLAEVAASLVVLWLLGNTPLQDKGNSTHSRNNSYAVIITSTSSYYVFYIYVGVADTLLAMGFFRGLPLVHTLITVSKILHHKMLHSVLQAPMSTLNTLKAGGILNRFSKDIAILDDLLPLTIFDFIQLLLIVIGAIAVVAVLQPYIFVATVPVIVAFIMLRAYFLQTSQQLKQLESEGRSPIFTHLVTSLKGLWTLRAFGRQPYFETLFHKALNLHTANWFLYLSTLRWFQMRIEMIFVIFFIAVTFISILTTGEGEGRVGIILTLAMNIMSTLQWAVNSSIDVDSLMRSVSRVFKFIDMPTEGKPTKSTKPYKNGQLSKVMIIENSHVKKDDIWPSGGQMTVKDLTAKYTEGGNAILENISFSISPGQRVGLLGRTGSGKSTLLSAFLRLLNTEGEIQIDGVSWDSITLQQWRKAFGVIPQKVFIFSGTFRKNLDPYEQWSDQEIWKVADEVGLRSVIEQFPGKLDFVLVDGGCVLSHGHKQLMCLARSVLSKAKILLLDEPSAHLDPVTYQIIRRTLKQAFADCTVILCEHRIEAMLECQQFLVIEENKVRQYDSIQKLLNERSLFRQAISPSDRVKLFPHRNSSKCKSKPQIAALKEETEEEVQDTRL

Columns and labels:
Assay type in all cases: cell-based
[1] = biological target: T1, Cystic fibrosis transmembrane conductance regulator (Homo sapiens, UniProt P13569, F508DEL); assay: Potentiation of CFTR F508del mutant (unknown origin) expressed in CHO cells assessed as chloride transport by measuring membrane potential incubated for 5 to 30 mins in presence of forskolin by Quattro assay
[2] = biological target: T1, Cystic fibrosis transmembrane conductance regulator; assay: Potentiation of CFTR F508del mutant (unknown origin) expressed in FRT cells assessed as chloride transport by measuring membrane potential in presence of forskolin
[3] = biological target: T1, Cystic fibrosis transmembrane conductance regulator; assay: Potentiation of CFTR F508del mutant (unknown origin) expressed in CHO cells assessed as chloride transport by measuring membrane potential preincubated for 5 mins followed by forskolin addition by FLIPR assay
[4] = biological target: Cystic fibrosis transmembrane conductance regulator (Homo sapiens, UniProt P13569); assay: Potentiation of wild-type CFTR (unknown origin) expressed in FRT cells assessed as chloride transport by measuring membrane potential in presence of forskolin

EC50 [1]: 8.48 µM
EC50 [2]: 6.17 µM
EC50 [3]: 8.2 µM
EC50 [4]: 14.2 µM
Structure (SMILES): O=c1c(-c2ccc(O)cc2)coc2cc(O)cc(O)c12 [GENISTEIN]
